Test results reported in publication PMC9531372, “Metabolic profiling and pharmacokinetic studies of Baihu-Guizhi decoction in rats by UFLC-Q-TOF–MS/MS and UHPLC-Q-TRAP-MS/MS” (Chinese Medicine, 2022).

Experiment: Pharmacokinetics of five absorbed components in rat serum after single or multiple gavage of BHGZD (UHPLC-Q-TRAP-MS/MS)
Excerpt: Male Lewis rats, weighing 200–240 g, were purchased from Beijing Charles River Experimental Animals Co. Ltd. (Beijing, China). […] Animal experiments were approved and supervised by the National Institutes of Health guide for the care and use of Laboratory animals. Every effort was made to minimize both the employed animal numbers as well as the potential discomfort of the animals throughout the study.
For single administration, rats were orally administrated with BHGZD powder at dose of 21.4 g/kg, which was equivalent to two-fold of clinical dose in human. […] For multiple administration, rats were intragastrically administered BHGZD (21.4 g/kg/day) once a day, for continuous 12 days. […] Serum was freshly prepared by centrifugation and stored at – 80 ℃ till analysis.
Quantification for five absorbed compounds of BHGZD in rat serum were achieved by using a Shimadzu ultra-high-performance liquid chromatography tandem ion trap quadrupole Q-TRAP 6500 plus mass spectrometry (UHPLC-Q-TRAP-MS/MS). Sample preparations were described above.
Chromatographic separation was carried out on a Poroshell 120 EC-C18 column (50 × 3.0 mm, 2.7 μm, Agilent, USA) with a flow rate 0.3 mL/min.
The optimized parameters for the mass spectrometer were set as follows: curtain gas, 35 psi; collision gas, medium; ionspray voltage, 4500 V; temperature, 550 °C; ion source gas 1 and 2, 55 psi. […] Data acquisition and analysis were achieved by OS-Q software (version 1.4.1.20719, AB Sciex, USA). Pharmacokinetic analysis was conducted by Drug and Statistic software (version 3.0, Shanghai, China).
The developed methodology was then applied for the in vivo pharmacokinetic evaluations of these five absorbed components. After single or multiple gavages of BHGZD, rat serum was collected at indicated time points, and the concentrations of five analyte were quantified accordingly.

[1] = BHGZD 21.4 g/kg oral gavage, single dose, n = 8, mean ± SEM
[2] = BHGZD 21.4 g/kg/day gavage once a day for 12 days, multiple dose, sampled day 12, n = 8, mean ± SEM

Substance: Liquiritin apioside
- AUC(0–∞) [1]: 28.06 ± 9.12
- Cmax [1]: 2.74 ± 1.23 ng/mL
- MRT(0–t) [1]: 3.27 ± 0.80
- MRT(0–∞) [1]: 12.17 ± 12.65
- T1/2 [1]: 2.65 ± 1.57 h
- Tmax [1]: 4.00 ± 1.77 h
- AUC (0–t) [2]: 44.96 ± 10.19
- AUC(0–∞) [2]: 47.91 ± 11.00
- Cmax [2]: 12.29 ± 2.01 ng/mL
- MRT(0–t) [2]: 3.15 ± 0.48
- MRT(0–∞) [2]: 3.46 ± 0.69
- T1/2 [2]: 1.18 ± 0.44 h
- Tmax [2]: 3.62 ± 0.51 h
